Measurements from patent US7250397B2, “Antiarrhythmic peptides” (Zealand Pharma A/S, priority 2000, dated 2007).

What was measured:
[1] = In vitro stability test in rat plasma (heparin); type: in vitro ADME; details: 37° C., 0.1 mg/ml, mean n=3
Procedure: (§1) The stability of peptides is analysed in different plasma and serum types. The peptides are incubated at 37° C. in plasma and samples taken at approx. 9 regular intervals between t=0 and t=156 min are analysed by HPLC.
(§2) This is done by subsequent injections of the drug, plasma, and a co-injection with the drug and the plasma, followed by optimisation of the LC method parameters until a satisfactory separation is obtained. Three parallel experiments are performed for each plasma type:100 μl of peptide is mixed with 900 μl plasma at t=0 and incubated at 37° C. (drug-plasma mixture conc. 0.1 mg/ml). Samples of 100 μl of the drug-plasma mixture are removed at appropriate intervals and the degradation stopped by precipitation of the sample with 10 μl MeCN:TFA 50:50 v/v. A control plasma sample without the drug treated in the same manner is also taken. The plasma samples are centrifuged for 15 min. at 12,000 rpm (Eppendorf centrifuge) at ambient temperature. The resulting supernatant solution is transferred to 300 μl HP autosamler vials and analyzed by HPLC. […]
(§3) The samples are analyzed in the following order: blank, the peptide at 0.1 mg/mL, the plasma without the peptide, the three parallel samples for t=0, the three parallel samples for t=5 min. the three parallel samples for t=10 min. etc. […]

[2] = In vitro stability test in rabbit plasma (heparin); type: in vitro ADME; details: 37° C., 0.1 mg/ml, mean n=3
Procedure: as §1
This is done by subsequent injections of the drug, plasma, and a co-injection with the drug and the plasma, followed by optimisation of the LC method parameters until a satisfactory separation is obtained. Three parallel experiments are performed for each plasma type:100 μl of peptide is mixed with 900 μl plasma at t=0 and incubated at 37° C. (drug-plasma mixture conc. 0.1 mg/ml). Samples of 100 μl of the drug-plasma mixture are removed at appropriate intervals and the degradation stopped by precipitation of the sample with 10 μl MeCN:TFA 50:50 v/v. A control plasma sample without the drug treated in the same manner is also taken. The plasma samples are centrifuged for 15 min. at 12,000 rpm (Eppendorf centrifuge) at ambient temperature. The resulting supernatant solution is transferred to 300 μl HP autosamler vials and analyzed by HPLC. HPLC analysis are performed as follows: • Compound CE1 • Column: Vydac 218MS52, 250×2.1 mm, flow: 0.200 mL/min. Temp.: 40° C. • Solvent: MeCN/MQW/TFA (0.1%). Run time: 25 min. • Inj.vol.:15 μL. Detection: DAD1 A, 214.5 nm • Compound CE2 • Column: Kromasil KR100-10C8, 250×4.6 mm, flow: 1 mL/min. Temp.: 40° C. • Solvent: MeCN/MQW/TFA (0.1%). Run time: 20 min. • Inj.vol.:25 μL. Detection: VWD 1 A, 214.5 nm. • Except for rabbit serum: DAD1 A, 214.5 nm • Except for rat plasma: Solvent: MeOH/MQW/TFA (0.1%). Detection:VWD1 A, 210 nm • Compound CE3 • Column: Vydac 218MS52, 250×2.1 mm, flow: 0.200 mL/min. Temp.: 40° C. • Solvent: MeCN/MQW/TFA (0.1%). Run time: 35 min. • Inj.vol.:15 μL. Detection: DAD1 A, 214.5 nm • Compound 3 • Column: Kromasil KR100-10C8, 250×4.6 mm, flow: 1 mL/min. Temp.: 40° C. • Solvent: MeCN/MQW/TFA (0.1%). Run time: 25 min. • Inj.vol.:25 μL. Detection:DAD1 A, 214.5 nm • Compound 2 • Column: Luna 3u C18(2), 150×2 mm, flow: 0.250 mL/min.Temp.: 40° C. • Solvent: MeOH/MQW/HFBA (0.02%). Run time: 25 min. • Inj.vol.: 25 μL. Detection:DAD1 A, 214.5 nm. • Except for human plasma: Column: Luna 5u C18, 150×2 mm, Temp.: 10° C. • Except for human serum: Column: Kromasil KR100-10C8, 250×4.6 mm, • flow: 1 mL/min. Solvent: MeCN/MQW/TFA (0.1%). • Compound 27 • Column: Kromasil KR100-10C8, 250×4.6 mm, flow: 1 mL/min. Temp.: 40° C. • Solvent: MeCN/MQW/TFA (0.1%). Run time: 20 and 25 min. • Inj.vol.: 25 μL. Detection: VWD1 A, 214 nm • Compound 49 • Column: Kromasil KR100-10C8, 250×4.6 mm, flow: 1 mL/min. Temp.: 40° C. • Solvent: MeCN/MQW/TFA (0.1%). Run time: 25 min. • Inj.vol.: 25 μL. Detection: DADI A, 214.5 nm • Compound 48 180 • Column: Kromasil KR100-10C8, 250×4.6 mm, flow: 1 mL/min. Temp.: 40° C. • Solvent: MeCN/MQW/TFA (0.1%). Run time: 25 min. • Inj.vol.: 25 μL. Detection: DAD1 A, 214.5 nm
The samples are analyzed in the following order: blank, the peptide at 0.1 mg/mL, the plasma without the peptide, the three parallel samples for t=0, the three parallel samples for t=5 min. the three parallel samples for t=10 min. etc. And finally the three parallel samples for t=0 are repeated to make sure that there have been no degradation or other failure during the analyses. The sample concentrations (peak height in mAU) are plotted vs. time and fitted to a function describing a mono exponential decay (Excel). The half-life of the peptides in the different types of plasma are presented in Table 1 as mean (n=3)±standard deviation.

[3] = In vitro stability test in rabbit serum; type: in vitro ADME; details: 37° C., 0.1 mg/ml, mean n=3
Procedure: as §1, §2, §3

[4] = In vitro stability in plasma and serum, summary statement; type: in vitro ADME
Procedure: as §1, §2, §3

[5] = In vitro stability test in human serum; type: in vitro ADME; details: 37° C., 0.1 mg/ml, mean n=3
Procedure: as §1, §2, §3

[6] = at one year; cited from earlier work
[7] = In vitro stability test in human plasma (heparin); type: in vitro ADME; details: 37° C., 0.1 mg/ml, mean n=3
Procedure: as §1
This is done by subsequent injections of the drug, plasma, and a co-injection with the drug and the plasma, followed by optimisation of the LC method parameters until a satisfactory separation is obtained. Three parallel experiments are performed for each plasma type:100 μl of peptide is mixed with 900 μl plasma at t=0 and incubated at 37° C. (drug-plasma mixture conc. 0.1 mg/ml). Samples of 100 μl of the drug-plasma mixture are removed at appropriate intervals and the degradation stopped by precipitation of the sample with 10 μl MeCN:TFA 50:50 v/v. A control plasma sample without the drug treated in the same manner is also taken. The plasma samples are centrifuged for 15 min. at 12,000 rpm (Eppendorf centrifuge) at ambient temperature. The resulting supernatant solution is transferred to 300 μl HP autosamler vials and analyzed by HPLC. HPLC analysis are performed as follows: • Compound CE1 • Column: Vydac 218MS52, 250×2.1 mm, flow: 0.200 mL/min. Temp.: 40° C. • Solvent: MeCN/MQW/TFA (0.1%). Run time: 25 min. • Inj.vol.:15 μL. Detection: DAD1 A, 214.5 nm • Compound CE2 • Column: Kromasil KR100-10C8, 250×4.6 mm, flow: 1 mL/min. Temp.: 40° C. • Solvent: MeCN/MQW/TFA (0.1%). Run time: 20 min. • Inj.vol.:25 μL. Detection: VWD 1 A, 214.5 nm. • Except for rabbit serum: DAD1 A, 214.5 nm • Except for rat plasma: Solvent: MeOH/MQW/TFA (0.1%). Detection:VWD1 A, 210 nm • Compound CE3 • Column: Vydac 218MS52, 250×2.1 mm, flow: 0.200 mL/min. Temp.: 40° C. • Solvent: MeCN/MQW/TFA (0.1%). Run time: 35 min. • Inj.vol.:15 μL. Detection: DAD1 A, 214.5 nm • Compound 3 • Column: Kromasil KR100-10C8, 250×4.6 mm, flow: 1 mL/min. […]
as §3

Substance	T1/2 [2] [min]	half life of degradation [4]	T1/2 [7] [min]	further results
H-Gly-Ala-Gly-Hyp-Pro-Tyr-NH2 [Compound CE2]	9.5	less than 10 minutes	–	T1/2 [1]: 8.2 min; T1/2 [3]: 2.7 min
Cyclo(Tyr-Pro-4Hyp-Gly-Ala-Gly-Asn) [Compound 3]	>300	–	–	T1/2 [5]: >5 h
Amiodarone	–	–	–	drug discontinuation due to side effects [6]: up to 20 % of patients
H-Gly-Pro-Hyp-Gly-Ala-Gly-OH [Compound CE1, reference compound]	4.4	–	7.6	–
3-(4-hydroxyphenyl)propionyl-Pro-Hyp-Gly-Ala-Gly-OH [Compound CE3, reference compound]	3.7	less than 12 minutes	11.9	–
